Reference: PMC8625360, “Direct Interaction of ATP7B and LC3B Proteins Suggests a Cooperative Role of Copper Transportation and Autophagy” (Cells, 2021)

How the values were obtained:
Assay in all cases: fluorescence polarisation; 25 µL CF-labelled peptide at 2.5 µM combined with 25 µL LC3B at 0.2-330 µM, black 384-well plate; HEPES buffer (50 mM HEPES pH 7.2, 50 mM NaCl, 2 mM DTE); one site-specific binding fit; three replications
[1] = biological target: LIR1 peptide of ATP7B, CF-labelled
[2] = biological target: LIR2 peptide of ATP7B, CF-labelled
[3] = biological target: LIR3 peptide of ATP7B phosphorylated at S1453, CF-labelled
[4] = biological target: LIR3 peptide of ATP7B with L1455A, CF-labelled
[5] = biological target: LIR3 peptide of ATP7B with W1452A, CF-labelled
[6] = biological target: LIR3 peptide of ATP7B with W1452A/L1455A, CF-labelled
[7] = biological target: LIR3 peptide of ATP7B, CF-labelled (native)

“LC3B protein (microtubule-associated protein light chain 3B), purified, tags removed (from UniProt Q9GZQ8 1-120) (natural protein)” showed a Kd [1] greater than 250 µM, a Kd [2] greater than 250 µM and a Kd [3] of 12.9 µM. For the same substance, the Kd [4] was 43 µM, the Kd [5] was greater than 250 µM and the Kd [6] was greater than 250 µM. The Kd [7] was 3.72 µM.
